## Antibody variant affinities, Ab-14 heavy chain, assay B

Binding partner: SARS-CoV-2 spike HR2 peptide, sequence PDVDLGDISGINAS.

Parent: Ab-14, a human scFv built as VH, a (GGGGS)3 linker, VL. Only the CDRs of the heavy chain vary.
VH: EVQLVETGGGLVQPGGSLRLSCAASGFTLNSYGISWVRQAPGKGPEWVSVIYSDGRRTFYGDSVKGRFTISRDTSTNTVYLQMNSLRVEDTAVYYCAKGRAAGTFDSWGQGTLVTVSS
VL: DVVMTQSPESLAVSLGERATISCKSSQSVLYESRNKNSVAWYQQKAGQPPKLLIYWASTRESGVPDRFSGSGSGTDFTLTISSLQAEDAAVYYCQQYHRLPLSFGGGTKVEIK

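The parent was found by panning a naive human phage display library on the peptide. These sequences belong to a second round, designed from the earlier measurements on random variants of the parent. Several design methods are mixed in this list. Affinity was read by AlphaSeq, a pooled yeast mating assay with surface-displayed partners. The frequency of each diploid, read from paired DNA barcodes, reflects how well the two displayed proteins bind. The ratio of observed to expected reads was calibrated, replicate by replicate, on BCL2-family standards whose Kd was known from biolayer interferometry. Each pool was mated in six replicate cultures.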

Each variant is given by its three heavy chain CDRs, as the data file delimits them; those of the parent are GFTLNSYGIS, VIYSDGRRTFYGDSVK, GRAAGTFDS. Values are apparent Kd, the geometric mean of the replicates that gave a signal; lower means stronger binding. Where no diploid with the target was found in any replicate, the entry reads "not detected": below detection, most likely a poor binder, though not proof of it. The parent sequence was in this pool as ten entries: three were never detected, three once, and four in most replicates, with averages from 2.2 nM to 240 nM. The range of this assay differs from that of the first round, and the authors advise against merging the two. Background: pairings of all heavy chain designs with three empty control strains gave a value in 1% of cases (median 120 nM, 5th percentile 7.0 nM). Values in that range, when seen in few replicates, are hard to tell from nonspecific mating. Where one sequence has several entries in the source, the replicates are pooled. The authors' rule: three or more of the six replicates give a measured affinity, fewer mean a poor binder.

Kd (apparent)	detected	CDR-H1	CDR-H2	CDR-H3
1.3 nM	6/6	GFDLNEYGIS	VIYADGIRTAYSDSVK	GNVAGTFDI
not detected	0/6	GFTLNSYGIS	VIYSDGRRTFYSDSVK	GRAHGTFDS
130 nM	1/6	GFTLNEYGIS	VQFSDNRRTFYTDSVK	GRFAGTFDS
510 pM	6/6	GFDLDEYGIS	VIYADGQRTAYADKVK	GENAGTFDV
not detected	0/6	GFDLDQYGIS	VIYADGRRTQYANDVK	GKYAGSMLS
300 pM	6/6	GFSLNDYGIS	VIYSDGRRTFYGDSVK	GRQAGTFDS
not detected	0/6	GFHLTEYGIS	VIYADGKRSVYTNDVK	GELGLGFVI
910 pM	6/6	KFSLNEYGIS	VIYSDGKRTFYGDSVK	GRTAGTFDS
not detected	0/6	GFTLDCYEQS	VEYSDGGRTFYGDSVK	GRAYGTALS
not detected	0/6	GEALNSYGIS	VIYSDGRRTFYGDSVK	GRAVGTFDS
950 pM	6/6	GFDLDEYGIS	VIYADGQRTAYADNVK	GNQAGTFDV
250 pM	6/6	GFDLNEYGIS	VIYADGQRTAYANSVK	GNVAGTFDV
74 pM	6/6	GFDLNEYGIS	VIYADGKRTAYADSVK	GNHAGTFDV
4.7 nM	6/6	GFNLNSYGIS	VIYSDGRRTFYGDSVK	GQIAGTFDS
220 pM	6/6	GFDLNEYGIS	VIYADGKRTAYVDSVK	GEVAGTFDQ
170 pM	6/6	GFDIDEYGIS	VIYADGRRTFYADSVK	GQNAGTFDV
350 pM	6/6	GFDLNEYGIS	VIYADGRRTAYLDSVK	GQVAGTFDT
310 pM	6/6	GFDLNEYGIS	VIYADGQRTFYADSVK	GNTAGTFLS
7.2 nM	1/6	GRTLNQYGIS	VIYSDGRRTFYGDSVK	GRAAGTFDS
not detected	0/6	HFSLNSYGIS	VIYSDGRRTFYHDSVK	GEAAGTFDS
not detected	0/6	GFTLNSYGIS	VIYSDGQRTFYGDQVK	GREAGKFDS
not detected	0/6	GFTLDSYGIS	VIYSDGRRTFYGDSVK	GRHAGTFDS
3.1 nM	6/6	GFKLNEYGIS	VIYSDGRRTFYGDSVK	GKAAGTFDS
not detected	0/6	GFELNSYGIS	VIYADMRRTFYGDSVK	GRAAGTFTS
120 nM	2/6	GFNLNKYGIS	VIYSDGRRTFYGDSVK	GRAAGTFDS
2.2 nM	6/12	GFNLNSYGIS	VIYSDGRRTFYSDSVK	GKAAGTFDS
240 nM	6/6	KFELNSYGIS	VIYSDGRRTFYGDSVK	GRTAGTFDS
450 pM	6/6	GFSLNSYGIS	VIYADGRRTFYGDSVK	GMAAGTFDS
380 pM	6/6	GFDLNEYGIS	VIYADGKRTAYADSVK	GSNAGTFDQ
970 pM	5/6	GFELNSYGIS	VIYSDGRRTFYTDSVK	GEAAGTFDS
3.3 nM	6/6	GFDLNSYGIS	VIYSDGRRTFYGDQVK	GRTAGTFDE
770 pM	6/6	GFDLNSYGIS	VIYSDGRRTAYGDRVK	GQAAGTFDS
64 nM	6/6	GFSLKSYGIS	VIYSDGRRTFYGDNVK	GRTAGTFDS
not detected	0/6	GFDLNEYGIS	VIYADGQRTFYVDSVK	GVNAGTFDV
2.9 nM	6/6	GFDLNSYGIS	VIYSDGRRTFYADSVK	GRAAGTFDK
2.7 nM	6/6	GFDLNEYGIS	VIYADGVRTAYADSVK	GENAGSFDV
not detected	0/6	GFDLTEYGIS	VIYADGRRTQYSQSVK	GLNGGIIVV
1.1 nM	6/6	GFDLDEYGIS	VIYADGRRTFYQDSVK	GNVAGTFDT
not detected	0/6	GFTLNSYGIS	VIYADGRRVFYGDSVK	RRAAGTFDS
570 nM	1/6	GFDIQEYGIS	VIYADGMRVAYTNSVK	GTQGISNIE
not detected	0/6	GFQLDEYGIS	VIYADGVRSSYVDSVK	GEITGAFSE
33 nM	6/6	GFQLNEYGIS	VIYSDGRRTFYQDSVK	GRNAGTFDS
not detected	0/6	GEDLSEYGIS	VIYADGRKTAYSNAFK	GAVGGIFVN
2.4 nM	6/6	GFNLNEYGIS	VIYSDGRRTFYTDSVK	GRYAGTFDS
not detected	0/6	GFSLDEQGIS	VIYADGIRRVYVDKVK	GQYGGDFIE
1.9 nM	12/12	GFDLNSYGIS	VIYSDGRRTFYGDSVK	GKAAGTFDS
not detected	0/6	GFTLNQYGIS	VIYSDGRRTFYSMSVK	GKAAGFFDS
440 pM	6/6	GFDLNEYGIS	VIYADGIRTFYADSVK	GNHAGTFDV
300 nM	1/6	GFDLNSYGIS	VIYSDGRRTFYGDSVK	GRAAGVFDS
39 nM	6/6	GFQLNSYGIS	VIYSDGRRTFYSDSVK	GHAAGTFDS
150 pM	6/6	GFDLNEYGIS	VIYADGRRTFYADSVK	GTNAGTFDQ

For reference, 5 entries of the list once more:

CDR-H1,CDR-H2,CDR-H3,Kd (apparent),detected
GFNLNKYGIS,VIYSDGRRTFYGDSVK,GRAAGTFDS,120 nM,2/6
GFNLNSYGIS,VIYSDGRRTFYGDSVK,GQIAGTFDS,4.7 nM,6/6
GFTLDCYEQS,VEYSDGGRTFYGDSVK,GRAYGTALS,not detected,0/6
GFDLNSYGIS,VIYSDGRRTFYGDSVK,GKAAGTFDS,1.9 nM,12/12
KFSLNEYGIS,VIYSDGKRTFYGDSVK,GRTAGTFDS,910 pM,6/6

Data: MIT Lincoln Laboratory AlphaSeq set, Li et al. 2023, doi:10.1038/s41467-023-39022-2, as distributed in FLAb.